Patent US20250064969A1, “METHOD FOR TREATING AUTOIMMUNE DISEASE” (Suntec Medical, Inc., priority 2022, published 2025)

Experiment: Nanoparticle size by DLS
Assay type: physicochemical
Conditions: DLS (Anton Paar Litesizer 500), in PBS; FIG. 6, FIG. 7
Description: MINC anti-HER2 nanoparticles were prepared according to WO2009/054813. In brief, anti-HER2 was incubated in PBS. […] After incubating the mixture at room temperature, 10K MWCO centrifugal filter was used to remove the unreacted oligomer flavonoid and polymer-flavonoid.
MINC (Multi-target Immune Nanocarrier Combination)-BSA nanoparticles were prepared according to WO2009/054813. In brief, BSA was incubated in PBS. Subsequently, OEGCG was added to BSA, followed by adding different polymer-flavonoid including PEG-EGCG, HA-EGCG and Dextran-EGCG. After incubating the mixture at room temperature, 10K MWCO centrifugal filter was used to remove the unreacted OEGCG and polymer-flavonoid. DLS (Anton Paar Litesizer 500) was used to measure the nanoparticle size.

trastuzumab [anti-HER antibody]
particle size: 5-10 nm
